Assay results published in patent publication US20240358845A1 (priority 2021, published 2024).

How the values were obtained:
[1] = system: creatine kinase; test: Serum creatine kinase level in MDX mice; settings: once per week for four weeks, serum one week after the last injection
[2] = system: Murine DMD exon 23; test: Exon 23 skipping (RT-PCR) in muscle tissue of MDX mice
[3] = system: dystrophin; test: Dystrophin protein expression (Western blot, immunohistochemistry) in MDX mice; settings: repeated dosing study, quantification of dystrophin protein
[4] = system: Human CD33 exon 2; test: CD33 exon 2 skipping (RT-PCR) in differentiated THP1 cells; format: cell-based; settings: differentiated THP1 cells treated for 1 day, then full growth medium

## 5′-GGCCAAACCTCGGCTTACCTGAAAT-3′ (all PMO monomers)
[1]
  serum creatine kinase level: did not significantly reduce the elevated serum CK level

## 5′-GGCCAAACCTCGGCTTACCTGAAAT-3′-C3NH-PEG4-BCN+Ac-NLS-Lys(CPP12)-PEG12-K(N3) (all PMO monomers)
[2]
  performance of CPP12 with Nuclear Localization Sequence versus CPP12 alone: outperformed CPP12 alone significantly

## 5′-GGCCAAACCTCGGCTTACCTGAAAT-3′-C3NH-PEG4-BCN+Lys(N3)-miniPEG-NLS-ss-bA-bA-CPP12 (all PMO monomers)
[2]
  performance of CPP12 with Nuclear Localization Sequence versus CPP12 alone: outperformed CPP12 alone significantly

## 5′-GGCCAAACCTCGGCTTACCTGAAAT-3′-click-K-PEG12-Lys(CPP12)-NLS-Ac (all PMO monomers)
[3]
  cells positive for dystrophin in cardiac tissue: 40%

## 5′-GTAACTGTATTTGGTACTTCC-3′ + CPP12-PEG12-K(CPP12)-PEG12-TFP (all PMO monomers)
[4]
  period of sustained CD33 exon 2 skipping: > 8 days
